Measured values from ChEMBL document CHEMBL3399959, “Transporter-mediated tissue targeting of therapeutic molecules in drug discovery” (Bioorg Med Chem Lett, 2015).

How the values were obtained:
Nucleic Acid [1] = test: Ratio of drug uptake in liver to muscle in rat; type: ADME, tissue-based; details: in vivo
Nucleic Acid [2] = test: Ratio of drug uptake in liver to plasma in rat; type: ADME, tissue-based; details: other tissue

- Ratio (Nucleic Acid [1]): 160
- Ratio (Nucleic Acid [2]): 50
SMILES: CC(C)c1c(C(=O)Nc2ccccc2)c(-c2ccccc2)c(-c2ccc(F)cc2)n1CC[C@@H](O)C[C@@H](O)CC(=O)O [ATORVASTATIN]
